Data on one compound can be found in patent publication US20250161243A1, “MEF2 TRANSCRIPTIONAL ACTIVATORS TO TREAT NEUROLOGIC CONDITIONS” (The Scripps Research Institute, priority 2022, published 2025).

For the assay, the system named is MEF2 transcriptional activity. Kind of assay: MEF2 transcriptional activity screen (Luciferase-MEF2 reporter in human neural progenitor cells). Conditions: read-out: qAC50 [M].

Turning to `CN(C)CCCOc1ccc(-c2ccc3ncc4c(c3c2)n(C2CCOCC2)c(=O)n4C)cn1` [AZD-0156], the EC50 was 1.18e-05 M.
